From ChEMBL document CHEMBL5543107, “Discovery of a novel class of reversible monoacylglycerol lipase inhibitors for potential treatment of depression” (Eur J Med Chem, 2024)
The source made the active and inactive calls. No cut-off for these calls is given here.

Protein sequences, listed by entry. Tags and fused reporters are not part of them.
UniProt O35678, whole entry: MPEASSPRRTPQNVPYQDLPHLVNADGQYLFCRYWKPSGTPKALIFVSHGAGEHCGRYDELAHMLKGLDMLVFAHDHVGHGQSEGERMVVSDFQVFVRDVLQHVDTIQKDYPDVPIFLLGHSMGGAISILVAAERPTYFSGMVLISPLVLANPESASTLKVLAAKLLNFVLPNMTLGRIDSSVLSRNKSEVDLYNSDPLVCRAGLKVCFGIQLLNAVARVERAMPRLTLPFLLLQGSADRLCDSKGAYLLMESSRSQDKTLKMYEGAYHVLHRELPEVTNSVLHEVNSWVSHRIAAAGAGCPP

Key:
[1] = molecular target: Monoglyceride lipase (Mus musculus) (UniProt O35678); conditions: ICR, dose 10.0 mg/kg, route po, time 240.0 min
[2] = molecular target: Monoglyceride lipase (Mus musculus) (UniProt O35678); conditions: ICR, dose 10.0 mg/kg, route po, time 8.0 hrs

## O=C(c1ccc2ccc(=O)[nH]c2c1)N1CCN(c2ccc(-c3ccc(Cl)cc3)cn2)CC1
[1]
  inhibition: Active
[2]
  inhibition: inactive
